Assay results published in patent publication US7972829B2, “Process for producing transglutaminase” (Ajinomoto Co., Inc., priority 1999, dated 2011).

Test system: proline specific peptidase (svPEP)
Test: Substrate specificity of svPEP (cleaving activity on pNA-, βNA-conjugated peptides and peptides)
Type: biochemical, S. mobaraense IFO13819
Conditions: 20 mM sodium phosphate buffer pH 6.5, 37° C., 5 min; AAP-pNA = 100

Row | Substance | relative activity (specificity of svPEP for peptide substrate)
1 | GP-βNA [β-naphtylamido peptide substrate for svPEP] | 0.40%
2 | RP-pNA [p-nitroanilide peptide substrate for svPEP] | 0.94%
3 | Z-GP-βNA [β-naphtylamido peptide substrate for svPEP] | 0.04%
4 | AP-pNA [p-nitroanilide peptide substrate for svPEP] | 0.53%
5 | DP-pNA [p-nitroanilide peptide substrate for svPEP] | 0.00%
